Test system: TNFR1 and TNFR2
Assay: Relative affinity of TNF variants to TNFR1 versus TNFR2
Type: binding
Conditions: log10(R1/R2), R1 and R2 affinities of TNF to TNFR1 and TNFR2 (relative affinity % Kd)
Text: The TNF dataset, disclosed in the article from Mukai Y et al. (J Mol Biol. 2009 Jan. 30; 385(4):1221-9) “Structure-function relationship of tumor necrosis factor (TNF) and its receptor interaction based on 3D structural analysis of a fully active TNFR1-selective TNF mutant”, is a collection of 20 mutants and one WT Tumour Necrosis Factor (TNF) sequences (WT sequence corresponds to SEQ ID NO: 6). TNF is an important cytokine that suppresses carcinogenesis and excludes infectious pathogens to maintain homeostasis.

relative binding affinities: 0
Substance: WT_157aa: WT Tumour Necrosis Factor (TNF) sequence

Source: US20210265014A1, “METHOD AND ELECTRONIC SYSTEM FOR PREDICTING AT LEAST ONE FITNESS VALUE OF A PROTEIN VIA AN EXTENDED NUMERICAL SEQUENCE, RELATED COMPUTER PROGRAM PRODUCT” (PEACCEL, priority 2018, published 2021)
